Molecular target: Adenosine receptor A1 (Rattus norvegicus, UniProt P25099)
Format: cell membranes, Cerebral cortex, Membrane

Chains of the proteins cited; added tags and fusions are not shown.
UniProt P25099, whole entry: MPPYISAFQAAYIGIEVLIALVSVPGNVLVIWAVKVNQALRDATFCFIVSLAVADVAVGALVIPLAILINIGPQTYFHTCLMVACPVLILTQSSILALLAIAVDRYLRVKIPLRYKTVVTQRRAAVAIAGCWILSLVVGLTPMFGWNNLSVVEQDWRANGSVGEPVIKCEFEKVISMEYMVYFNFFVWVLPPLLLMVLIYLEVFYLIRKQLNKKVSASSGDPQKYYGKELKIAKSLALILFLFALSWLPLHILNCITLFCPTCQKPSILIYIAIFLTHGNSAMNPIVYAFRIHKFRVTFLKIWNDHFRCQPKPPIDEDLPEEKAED

Q: For `CCn1c(=O)c2nc(-c3ccc(OCC(=O)NCCNC(=O)[C@@H](N)CCCCN)cc3)[nH]c2n(CC)c1=O`, which Ki is on record?
A: The Ki was 9.4 nM.

From ChEMBL document CHEMBL1123584, “Xanthine functionalized congeners as potent ligands at A2-adenosine receptors” (J Med Chem, 1987)
